Measured values as given in ChEMBL document CHEMBL1149354, “A new series of pyridinyl-alkynes as antagonists of the metabotropic glutamate receptor 5 (mGluR5)” (Bioorg Med Chem Lett, 2006).
pIC50: −log10 of the molar value.

By UniProt entry, the sequences of proteins in these tests, tags left out.
UniProt P41594, whole entry: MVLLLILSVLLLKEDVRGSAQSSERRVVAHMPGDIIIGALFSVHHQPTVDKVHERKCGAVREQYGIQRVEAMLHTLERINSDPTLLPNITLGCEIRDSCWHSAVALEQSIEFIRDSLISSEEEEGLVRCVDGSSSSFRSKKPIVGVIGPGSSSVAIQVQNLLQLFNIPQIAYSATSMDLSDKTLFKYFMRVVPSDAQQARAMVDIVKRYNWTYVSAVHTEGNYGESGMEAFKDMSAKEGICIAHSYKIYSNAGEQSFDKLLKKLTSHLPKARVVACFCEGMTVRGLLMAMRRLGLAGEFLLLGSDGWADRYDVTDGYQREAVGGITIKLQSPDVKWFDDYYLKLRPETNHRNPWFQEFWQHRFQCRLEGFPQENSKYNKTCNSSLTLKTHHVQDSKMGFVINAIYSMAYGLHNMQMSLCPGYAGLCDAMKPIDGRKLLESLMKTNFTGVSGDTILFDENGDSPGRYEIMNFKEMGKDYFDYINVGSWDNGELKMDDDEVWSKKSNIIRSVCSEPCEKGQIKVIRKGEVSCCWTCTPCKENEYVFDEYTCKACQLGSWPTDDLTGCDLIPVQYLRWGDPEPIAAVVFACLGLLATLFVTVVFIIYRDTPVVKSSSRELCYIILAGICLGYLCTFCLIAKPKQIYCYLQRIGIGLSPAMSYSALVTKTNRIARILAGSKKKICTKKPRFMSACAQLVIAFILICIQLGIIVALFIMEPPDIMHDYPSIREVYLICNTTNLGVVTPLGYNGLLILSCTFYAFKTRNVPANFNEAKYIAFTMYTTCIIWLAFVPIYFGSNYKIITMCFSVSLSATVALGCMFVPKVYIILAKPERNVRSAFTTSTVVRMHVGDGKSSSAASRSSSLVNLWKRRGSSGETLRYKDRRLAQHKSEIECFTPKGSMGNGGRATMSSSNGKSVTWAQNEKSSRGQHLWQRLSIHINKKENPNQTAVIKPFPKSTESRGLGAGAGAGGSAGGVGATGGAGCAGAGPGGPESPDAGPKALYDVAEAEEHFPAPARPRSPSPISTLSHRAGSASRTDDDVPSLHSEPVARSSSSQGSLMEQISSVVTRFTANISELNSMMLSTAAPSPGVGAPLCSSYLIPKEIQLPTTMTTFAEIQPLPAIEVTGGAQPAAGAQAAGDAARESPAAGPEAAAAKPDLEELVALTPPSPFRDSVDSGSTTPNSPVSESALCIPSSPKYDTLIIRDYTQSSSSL

Target: Metabotropic glutamate receptor 5 (Homo sapiens, UniProt P41594)
Test: Activity at human mGluR5 assessed as effect on glutamate-induced calcium ion mobilization by FLIPR
Type: functional

- pIC50: 7.11
SMILES: Cc1nc(C#Cc2cccnc2)cs1
